# Antibody variant affinities, Ab-14 light chain, assay B

Data: MIT Lincoln Laboratory AlphaSeq set, Li et al. 2023, doi:10.1038/s41467-023-39022-2, as distributed in FLAb.

Antigen: PDVDLGDISGINAS, a 14-residue peptide of the SARS-CoV-2 spike HR2 region.

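The parent was found by panning a naive human phage display library on the peptide. This is the validation round: designs drawn from the data on random variants, tested in the same kind of assay. Group labels follow the data file (Ctrl: baseline library sampled from a position-specific scoring matrix, with some repeated check sequences; Rand: our label for a block that the file lists under HC and that is probably the random mutants of the ten best first-round binders; En: ensemble of fine-tuned language models; GP: Gaussian process model; HC: hill climbing; Gen: genetic algorithm; Gibbs: Gibbs sampling; a sequence that several methods proposed may carry one label only). The assay is AlphaSeq: two haploid yeast populations carry antibody and antigen on their surface. After mating in shaken culture at 30 °C for 16 h, diploids were selected and their barcode pairs sequenced. Each replicate has its own calibration line, from reference interactions of the BCL2 family. Each pool was mated in six replicate cultures.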

The variants keep the heavy chain, the linker and the frameworks of Ab-14 (scFv order VH, the linker GGGGSGGGGSGGGGS, VL).
VH: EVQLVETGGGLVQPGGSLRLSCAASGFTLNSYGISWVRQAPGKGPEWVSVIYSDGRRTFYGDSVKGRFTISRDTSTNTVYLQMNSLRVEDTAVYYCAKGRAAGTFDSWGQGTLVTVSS
VL: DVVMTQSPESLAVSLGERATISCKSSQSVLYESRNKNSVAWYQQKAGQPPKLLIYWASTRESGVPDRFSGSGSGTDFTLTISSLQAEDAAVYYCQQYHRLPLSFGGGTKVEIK

The parent's light chain CDRs are KSSQSVLYESRNKNSVA, WASTRES, QQYHRLPLS; each variant's own CDRs replace them letter for letter. Numbers give log10(Kd / nM), so 0 is 1 nM and 3 is 1 µM. Smaller is tighter. A mean of the replicates is given; it leaves out those without a signal. An entry "nd" has no value in the source: the pair was not observed among the diploids in any replicate. This suggests poor binding but is not conclusive. Empty control strains, which show no peptide, gave a signal in 4% of pairings with all light chain designs; the median was 2.64 and 95% of these signals were weaker than 1.59. No background was subtracted. The control count says in how many pairings with the empty strains this scFv gave a signal.

CDR-L1 | CDR-L2 | CDR-L3 | group | log10 Kd (nM), mean | detected | empty controls
KITQLTMETSRNKNNVA | EVSTLPD | QQYHRLPLS | En_HC | 0.64 | 6 of 6 | 1 of 18
SLTIYQDENGLKHQSIA | GAGLRML | QQYHRLPLT | En_Gibbs | 0.64 | 6 of 6 | 0 of 18
KLSPSEQYESRNKNSVA | HASLRES | QQYHRLPLS | GP_Gibbs | 0.05 | 6 of 6 | 3 of 18
KLSQSQLYESRNSKSVA | NASTRVS | QQYHRLPLS | GP_Gibbs | 0.30 | 6 of 6 | 3 of 18
TLSVMQGLEAVKHNSVA | ENSTREK | QQYDRLPLA | En_Gen | 1.61 | 6 of 6 | 0 of 18
TLTQVTMVESYNKNSVA | QASTRLE | QDYHRLPLS | En_HC | 2.52 | 5 of 6 | 0 of 18
VLQQSGLMESRNKNSVA | SASTRLP | QQYHRLPLS | GP_Gibbs | 0.56 | 6 of 6 | 2 of 18
SLYEVSEELSGKKHSVA | DNSTRGD | QQYFRLPLE | En_Gen | 0.83 | 6 of 6 | 0 of 18
KLRWSMLYESRNKNSVA | NASQRCS | QQYHRLPLS | GP_Gibbs | 0.06 | 6 of 6 | 1 of 18
KLSMSWEYESRNSNSVA | NASTRET | QQYHRLPLA | GP_Gibbs | 0.98 | 6 of 6 | 0 of 18
KLSSYTGTEKVHGNNVA | EMETRER | QQYNRLPLA | En_Gen | 0.28 | 6 of 6 | 0 of 18
KSSPSVLYESENKNSVA | NASTRMS | QQYHRLPLS | GP_HC | 0.01 | 6 of 6 | 0 of 18
KIGGVTNGTSRNKNSVA | EQSTRES | QQYNRLPLS | En_HC | 1.13 | 6 of 6 | 1 of 18
NLSGMVEEIETRQKNIA | EVEFRCM | QQYSRLPLS | En_Gibbs | 1.83 | 6 of 6 | 1 of 18
VLMGWGADSIQHANSIA | DVDLVDM | QQYAHLPLS | En_Gibbs | 1.85 | 6 of 6 | 0 of 18
KSSQSVLYESRNKNSVA | WASTRES | QQYIRLPLS | Ctrl | nd | 0 of 6 | 0 of 18
SFDLTKSGMENERYSIA | ETSTLMT | QDYHRLPLA | En_Gibbs | 2.38 | 4 of 6 | 0 of 18
KLSQSVGYESRLANNVA | NASTRLE | QQYHRLPLS | GP_Gibbs | 0.24 | 6 of 6 | 1 of 18
KVSQSRLYESRNKNSVA | NASTRES | QQYHRLPLS | GP_Gen | 0.87 | 6 of 6 | 1 of 18
KSSQSVLYESRNKNSVA | NANTRES | QQYHRLPLS | Ctrl | 0.67 | 6 of 6 | 2 of 18
KSSPSSLYESRNKNSVA | WASTRES | QQYHWLPLS | Ctrl | nd | 0 of 6 | 0 of 18
KIMQSQLGEMRNVNSVA | NASTRES | QQYHRLPLS | GP_Gibbs | 0.12 | 6 of 6 | 2 of 18
TISASTYWESRNKNSVA | QTSTREE | QDYDRLPLS | En_HC | 1.07 | 6 of 6 | 0 of 18

Continued, with the values leading:

log10 Kd (nM), mean | detected | empty controls | CDR-L1 | CDR-L2 | CDR-L3 | group
1.90 | 5 of 6 | 1 of 18 | KSSQSVLYESRNKNSVA | WASTRES | QMYHRLPLS | Ctrl
1.61 | 6 of 6 | 2 of 18 | KSSQEVLYESANKNSVA | WASRRES | QQYHRLPLS | Ctrl
1.74 | 3 of 6 | 0 of 18 | ASSTSVLYESENGNSVA | WASTRES | QQYHRLPLS | Ctrl
1.48 | 6 of 6 | 1 of 18 | KLNEDVGNHTHDQKNIA | DESRVDR | QQYAHLPLS | En_Gibbs
-0.26 | 6 of 6 | 4 of 18 | KVQQSELGLSRNKNSVA | EASKRED | QQYHRLPLS | GP_Gibbs
0.53 | 6 of 6 | 1 of 18 | KLQQVTGYELYVRNSVA | QMSTRAE | QDYNRLPLS | En_HC
-0.37 | 6 of 6 | 0 of 18 | KLYQMTGIESHAKNSLA | DANRREE | QQYHRLPLS | En_HC
-0.39 | 6 of 6 | 1 of 18 | KSGQGVLYESRNKNNVA | GASTRES | QQYHTLPLS | Rand
0.61 | 6 of 6 | 0 of 18 | KLRQSTLYESRNPNSVA | EASTRES | QQYHRLPLS | GP_HC
0.10 | 6 of 6 | 1 of 18 | HISNMQAYGYSATNSVA | DNTEKLN | QQYIRLPLT | En_Gibbs
-0.12 | 6 of 6 | 2 of 18 | KVSQSWLYEERNKNSVA | NASQRES | QQYHRLPLS | GP_Gen
0.25 | 6 of 6 | 1 of 18 | KSPQGVLYESRNKNSVA | GASQRWS | QQYHRLPLS | GP_HC
1.59 | 5 of 6 | 0 of 18 | KSSQSVLYESRNKNHVA | HASTRES | QQYHRLRLS | Ctrl
-0.58 | 6 of 6 | 2 of 18 | KVSPSVLYESRNKNAVA | DASTRES | QQYHRLPLS | GP_Gen
2.00 | 6 of 6 | 3 of 18 | RLAMGHDNYMHEGNHVA | EVSCRAT | QQYAHLPLV | En_Gibbs
0.53 | 6 of 6 | 0 of 18 | VSSYSVLYEDTNKNSVA | DASTRES | QQYHRLPLS | Ctrl
-0.17 | 6 of 6 | 1 of 18 | HPSPSVLYESRNKNSVA | NASTRES | QQYHRLPLS | Rand
0.44 | 6 of 6 | 1 of 18 | SLMQVGGYESNNKNSIA | DLRTREN | QQYHRLPLS | En_HC
0.23 | 6 of 6 | 1 of 18 | TISGVMNSQSHVKNNVA | EMSTRDE | QQYVRLPLA | En_Gen
-0.16 | 6 of 6 | 2 of 18 | KLSQSVLYESRNQNSVA | NASTRLS | QQYHRLPLS | GP_Gen
1.02 | 1 of 6 | 1 of 18 | KYSQSVLYNSRNKNSVA | WASTRES | QQYHRLPLI | Ctrl
1.21 | 6 of 6 | 0 of 18 | TMSQMFEGLSTSKNPVA | QVSTREE | QQYHRLPLS | En_HC
0.06 | 6 of 6 | 1 of 18 | KLQQSELYESRMKNSVA | NASTRES | QQYHRLPLS | GP_Gen

Top 5 of the variants detected in all replicates, tightest first:

CDR-L1	CDR-L2	CDR-L3	group	log10 Kd (nM), mean	detected	empty controls
KVSPSVLYESRNKNAVA	DASTRES	QQYHRLPLS	GP_Gen	-0.58	6 of 6	2 of 18
KSGQGVLYESRNKNNVA	GASTRES	QQYHTLPLS	Rand	-0.39	6 of 6	1 of 18
KLYQMTGIESHAKNSLA	DANRREE	QQYHRLPLS	En_HC	-0.37	6 of 6	0 of 18
KVQQSELGLSRNKNSVA	EASKRED	QQYHRLPLS	GP_Gibbs	-0.26	6 of 6	4 of 18
HPSPSVLYESRNKNSVA	NASTRES	QQYHRLPLS	Rand	-0.17	6 of 6	1 of 18

Of ten entries with the parent sequence, four were seen in most replicates (averages 0.34 to 2.37), three in one and three in none, so single entries are noisy. A sequence measured in both rounds can read differently, since the two assays cover different ranges. In the paper, a design with two or fewer of six values counts as a poor binder.